Data: patent US12152264B2, “Phosphinothricin dehydrogenase mutant, genetically engineered bacterium and one-pot multi-enzyme synchronous directed evolution method” (ZHEJIANG UNIVERSITY OF TECHNOLOGY, priority 2020, dated 2024)

Assays:
[1] = biological target: Pseudomonas fluorescens phosphinothricin dehydrogenase (PPTDH, PfGluDH; NCBI accession number WP_150701510.1), wild type (Pseudomonas azerbaijanoccidentalis, UniProt A0ABS6QXK2); experiment: Determination of kinetic parameters of wild-type phosphinothricin dehydrogenase (PPO reductive amination with NADPH); settings: read-out: Km^A (apparent substrate affinity for NADPH), PPO 2-30 mM, 50 mM ammonium sulfate, NADPH 1-15 mM, 100 mM phosphate buffer pH 7.0, 40° C.
[2] = biological target: Pseudomonas fluorescens phosphinothricin dehydrogenase (PPTDH, PfGluDH; WP_150701510.1) mutant A164G_R205K_T332A, SEQ ID No.1 (Pseudomonas azerbaijanoccidentalis, UniProt A0ABS6QXK2, A164G/R205K/T332A); settings: read-out: Km^A (apparent substrate affinity for NADPH), PPO 2-30 mM, 50 mM ammonium sulfate, NADPH 1-15 mM, 100 mM phosphate buffer pH 7.0, 40° C.

NC(=O)C1=CN([C@@H]2O[C@H](COP(=O)(O)OP(=O)(O)OC[C@H]3O[C@@H](n4cnc5c(N)ncnc54)[C@H](OP(=O)(O)O)[C@@H]3O)[C@@H](O)[C@H]2O)C=CC1 [NADPH]
Km [1]: 140 µM | Km [2]: 90 µM
